Experimental findings from article PMC7723054 are described below.

The other results are listed elsewhere or left out.

T1: LIN28A (human?, UniProt Q9H9Z2 1-209)
T1 sequence: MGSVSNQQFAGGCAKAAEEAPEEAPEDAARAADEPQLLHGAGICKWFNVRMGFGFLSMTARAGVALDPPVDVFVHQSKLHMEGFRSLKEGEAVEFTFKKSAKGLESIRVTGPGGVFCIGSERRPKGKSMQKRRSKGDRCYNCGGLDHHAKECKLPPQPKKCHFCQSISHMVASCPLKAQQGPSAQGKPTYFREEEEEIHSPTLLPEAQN

T2: CIRBP (Homo sapiens, UniProt Q14011 1-172)
T2 sequence: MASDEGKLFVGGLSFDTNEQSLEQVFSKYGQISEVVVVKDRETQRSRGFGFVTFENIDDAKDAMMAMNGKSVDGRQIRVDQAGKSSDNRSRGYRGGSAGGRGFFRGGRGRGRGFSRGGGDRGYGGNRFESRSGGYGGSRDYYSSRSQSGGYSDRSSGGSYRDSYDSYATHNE

T3: DHX36 (Homo sapiens, UniProt Q9H2U1 1-1008)
T3 sequence: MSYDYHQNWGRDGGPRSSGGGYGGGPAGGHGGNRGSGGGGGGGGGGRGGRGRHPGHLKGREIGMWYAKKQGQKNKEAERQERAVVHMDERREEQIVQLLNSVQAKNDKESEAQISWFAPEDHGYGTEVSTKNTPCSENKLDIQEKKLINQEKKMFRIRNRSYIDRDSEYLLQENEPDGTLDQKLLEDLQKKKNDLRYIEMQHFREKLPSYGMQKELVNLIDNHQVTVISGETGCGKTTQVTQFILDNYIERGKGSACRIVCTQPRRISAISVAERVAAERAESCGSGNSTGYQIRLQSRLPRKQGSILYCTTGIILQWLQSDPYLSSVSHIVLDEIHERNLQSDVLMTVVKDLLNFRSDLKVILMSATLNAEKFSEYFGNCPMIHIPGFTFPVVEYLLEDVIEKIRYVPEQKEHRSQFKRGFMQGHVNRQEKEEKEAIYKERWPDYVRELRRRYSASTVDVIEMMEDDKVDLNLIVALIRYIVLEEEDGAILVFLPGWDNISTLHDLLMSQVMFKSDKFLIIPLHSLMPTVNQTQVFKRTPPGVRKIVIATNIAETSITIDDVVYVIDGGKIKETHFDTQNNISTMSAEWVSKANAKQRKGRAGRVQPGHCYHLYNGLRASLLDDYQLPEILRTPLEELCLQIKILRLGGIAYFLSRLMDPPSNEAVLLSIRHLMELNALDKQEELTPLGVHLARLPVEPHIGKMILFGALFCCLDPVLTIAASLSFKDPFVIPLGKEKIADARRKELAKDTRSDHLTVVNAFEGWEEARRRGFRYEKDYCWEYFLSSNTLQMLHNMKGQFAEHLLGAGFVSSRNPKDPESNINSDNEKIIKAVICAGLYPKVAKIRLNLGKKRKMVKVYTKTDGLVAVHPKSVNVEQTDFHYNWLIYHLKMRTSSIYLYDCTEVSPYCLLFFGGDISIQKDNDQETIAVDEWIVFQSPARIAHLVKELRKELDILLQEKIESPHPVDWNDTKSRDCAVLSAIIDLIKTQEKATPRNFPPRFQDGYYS

B1: hsa-mir-1298 (structured_RNA)
RNA: GGGAACAGGAGCGUACCCUAGGGACAAGGGUGUACGAAGUUUCAGCGAUGUAUCCAAGUACCCUGUGUUAUUUGGCAAUAAAUACAUCGCUGAAGCUUCGUGCAC
B2: hsa-mir-6505 (structured_RNA)
RNA: GGGAGGCAUUACGCCAAAACUGUCUACCGGUGUACGAAGUUUCAGCCUCAGCAUGUUGAGCCCUGUCUCUGGGGAGCUGACGCUGAAGCUUCGUGCAC
B3: hsa-mir-3978 (structured_RNA)
RNA: GGGACCACUUGAGGCUUAACUAAACGGUGGUGUACGAAGUUUCAGCGUGGAGCCAAAAUUAGAAGGGCCAAAAUUCUACCUGGCCCACUACCACAGGCUGAAGCUUCGUGCAC
B4: hsa-mir-718 (structured_RNA)
RNA: GGGAAAACGACACUCGCUAUGUCUCUGCGGUGUACGAAGUUUCAGCGCCCGGGCACCGCCCCUUGCUGAAGCUUCGUGCAC
B5: hsa-mir-203b (structured_RNA)
RNA: GGGAAUCGAACUUUGGGGAGGAACACCAGGUGUACGAAGUUUCAGCUCACAAUUGCGCUACAGAACUGUUGAGCUGAAGCUUCGUGCAC
B6: hsa-mir-568 (structured_RNA)
RNA: GGGAUGGUCGCGCUACCCUAUGCUCAGUGGUGUACGAAGUUUCAGCACACUUCCUAUAUGUAUCCACAUAUAUAUAGUGCUGAAGCUUCGUGCAC
B7: hsa-mir-4661 (structured_RNA)
RNA: GGGAUAUACACGGGAGUCUGUCCGCCAUGGUGUACGAAGUUUCAGCCCUGACAGACAGCCUGAUAGACAGGGCUGAAGCUUCGUGCAC
B8: hsa-mir-629 (structured_RNA)
RNA: GGGAUGGGACAGCGUCCAAACAUGACCAGGUGUACGAAGUUUCAGCGAACUUUUACGGUGAACCAGGAGGUUCGCUGAAGCUUCGUGCAC
B9: hsa-mir-138-2 (structured_RNA)
RNA: GGGAAAGACUUGGGAGAAUUAAUCCGCUGGUGUACGAAGUUUCAGCAGGCCGACGAGCAGCGCAUCCUCUUACCCGGCUAGCUGAAGCUUCGUGCAC
B10: hsa-mir-4774 (structured_RNA)
RNA: GGGACAGUGGGGUUAAACCUACACAUUCGGUGUACGAAGUUUCAGCUAAUAACUGACAAACAGACAAUUGGCUGAAGCUUCGUGCAC
B11: hsa-mir-591 (structured_RNA)
RNA: GGGACGCUGGCGGCUUGUACUUCAUAUUGGUGUACGAAGUUUCAGCUUGUAAUAGUGUAGAAUGUUGGUUAACGCUGAAGCUUCGUGCAC

In one assay the target is U1A (Homo sapiens, UniProt P09012). Nature of the assay: FOREST: bead pull-down of RNA structure library v1, barcode microarray; U1A/LIN28A: 20 mM HEPES pH 7.5, 80 mM KCl, 20 mM NaCl, 10% glycerol, 2 mM DTT, 0.1 ug/uL BSA, 4 C; BG4/CIRBP/DHX36: 10 mM Tris-HCl pH 7.5, 100 mM KCl (or LiCl),; high values mean tight binding.
B1: the binding signal amounted to 0.289 z-score.

In turn, B2 returned a binding signal of 0.294 z-score.

With B3, the binding signal worked out at 0.297 z-score.

For B4, the binding signal came to 0.28 z-score.

B5 gave a binding signal of 0.282 z-score.

For B6, the binding signal was found to be 0.291 z-score.

The molecule B7 gave a binding signal of 0.282 z-score.

With B8, the binding signal was determined as 0.284 z-score.

The molecule B9 showed a binding signal of 0.284 z-score.

With B10, the binding signal was found to be 0.288 z-score.

In turn, B11 had a binding signal of 1.89 z-score.

In another assay the target is T1, LIN28A. The assay is described as above.
As to B1, the binding signal was -0.163 z-score.

For the molecule B2, the binding signal was -0.466 z-score.

B3 registered a binding signal of 2.19 z-score.

In turn, B4 yielded a binding signal of -1.05 z-score.

For B5, the binding signal worked out at 0.778 z-score.

Molecule B6 gave a binding signal of -1.1 z-score.

The molecule B7 yielded a binding signal of 1.25 z-score.

Molecule B8 returned a binding signal of 0.217 z-score.

Molecule B9 displayed a binding signal of 1.58 z-score.

Turning to B10, the binding signal is -1.25 z-score.

Take B11: the binding signal was 1.02 z-score.

Another assay addresses T2, CIRBP. The assay is described as above.
For the molecule B1, the binding signal is -0.095 z-score.

B2 displayed a binding signal of -0.806 z-score.

As for B3, the binding signal was -0.447 z-score.

Take B4: the binding signal was -0.0139 z-score.

For B5, the binding signal is 2.13 z-score.

B6 displayed a binding signal of -1.82 z-score.

For the molecule B7, the binding signal stood at 0.0564 z-score.

Consider B8, for which the binding signal is 0.534 z-score.

Turning to B9, the binding signal turned out to be 3.24 z-score.

The molecule B10 displayed a binding signal of -0.072 z-score.

The molecule B11 registered a binding signal of 1.63 z-score.

The target in the next assay is T3, DHX36. The assay is described as above.
B1 registered a binding signal of -0.989 z-score.

B2: the binding signal turned out to be 0.289 z-score.

As for B3, the binding signal is 0.066 z-score.

B4: the binding signal is -0.262 z-score.

In the case of B5, the binding signal amounted to 1.53 z-score.

B6 gave a binding signal of 0.278 z-score.

B7 came in with a binding signal of -0.0507 z-score.

As for B8, the binding signal is -0.151 z-score.

For B9, the binding signal was found to be 1.25 z-score.

In the case of B10, the binding signal is -0.0991 z-score.

B11 gave a binding signal of 1.77 z-score.
